The target in this experiment is T1, ULK1 (NanoBRET) (Homo sapiens, UniProt O75385).
T1 sequence (O75385 1-1050): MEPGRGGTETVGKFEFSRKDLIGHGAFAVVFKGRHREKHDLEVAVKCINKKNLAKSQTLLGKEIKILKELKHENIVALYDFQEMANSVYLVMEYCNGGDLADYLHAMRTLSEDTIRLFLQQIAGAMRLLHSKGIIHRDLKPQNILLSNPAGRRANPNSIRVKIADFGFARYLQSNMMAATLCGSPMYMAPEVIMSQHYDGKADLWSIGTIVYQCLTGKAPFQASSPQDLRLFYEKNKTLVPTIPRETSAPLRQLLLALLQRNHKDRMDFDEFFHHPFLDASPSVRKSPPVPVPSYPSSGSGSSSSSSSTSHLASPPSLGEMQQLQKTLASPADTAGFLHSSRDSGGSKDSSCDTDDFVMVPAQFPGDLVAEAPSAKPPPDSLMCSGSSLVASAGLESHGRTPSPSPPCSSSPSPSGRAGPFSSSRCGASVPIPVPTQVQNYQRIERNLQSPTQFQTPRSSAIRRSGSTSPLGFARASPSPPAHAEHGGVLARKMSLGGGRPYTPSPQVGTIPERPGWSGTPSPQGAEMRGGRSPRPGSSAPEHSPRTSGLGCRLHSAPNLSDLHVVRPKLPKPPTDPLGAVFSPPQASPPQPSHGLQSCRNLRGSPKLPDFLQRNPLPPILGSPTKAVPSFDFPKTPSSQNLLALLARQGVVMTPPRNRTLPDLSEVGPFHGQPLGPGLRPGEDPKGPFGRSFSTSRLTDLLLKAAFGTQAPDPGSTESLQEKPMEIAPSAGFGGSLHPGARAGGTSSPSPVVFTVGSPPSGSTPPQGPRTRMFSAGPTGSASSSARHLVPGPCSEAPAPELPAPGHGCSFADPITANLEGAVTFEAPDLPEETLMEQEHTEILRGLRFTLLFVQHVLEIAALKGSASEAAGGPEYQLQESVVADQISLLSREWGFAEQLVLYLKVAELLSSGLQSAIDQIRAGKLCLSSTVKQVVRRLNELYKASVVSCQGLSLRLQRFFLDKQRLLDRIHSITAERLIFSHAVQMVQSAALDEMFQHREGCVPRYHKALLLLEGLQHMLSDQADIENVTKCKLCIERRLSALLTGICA
The experiment can be described thus: NanoBRET cellular target engagement. In kind it is cell-based. Background: Bioluminescence resonance energy transfer reports proximity on the nanometre scale.

For orientation: IC50 means the midpoint of a concentration-inhibition curve. Lower therefore signals greater potency in that assay. `CNC(=O)c1ccccc1Oc1nc(Nc2cc(OC)c(OC)c(OC)c2)ncc1Br` [SBI-0206965, reference compound] came in with an IC50 of 785 ± 26 nM.

The values above are taken from publication doi:10.1101/2025.10.14.682402v1 (biorxiv, 2025).
